The numbers were not newly measured in PMC5556379 (Journal of medicinal chemistry, 2017), which cites them from elsewhere.

This data set relates to cultured cells. The conditions noted are these: cited from earlier work.

Consider `CC1(C)CCC2=C(O1)c1ccccc1C(=O)C2=O` [Compound 1, β-lapachone], for which the “concentration required to induce cytotoxicity” value is 1000 to 5000 nM.
